Test results reported in US20100144779A1, “Marine Alkalod Makaluvamines and Derivatives Thereof” (THE UAB RESEARCH FOUNDATION, priority 2007, published 2010).

By UniProt entry, the sequences of proteins in these tests, tags left out. Where a name states a change or a piece, a line headed by the entry shows the natural chain unless it says otherwise.
UniProt P11388: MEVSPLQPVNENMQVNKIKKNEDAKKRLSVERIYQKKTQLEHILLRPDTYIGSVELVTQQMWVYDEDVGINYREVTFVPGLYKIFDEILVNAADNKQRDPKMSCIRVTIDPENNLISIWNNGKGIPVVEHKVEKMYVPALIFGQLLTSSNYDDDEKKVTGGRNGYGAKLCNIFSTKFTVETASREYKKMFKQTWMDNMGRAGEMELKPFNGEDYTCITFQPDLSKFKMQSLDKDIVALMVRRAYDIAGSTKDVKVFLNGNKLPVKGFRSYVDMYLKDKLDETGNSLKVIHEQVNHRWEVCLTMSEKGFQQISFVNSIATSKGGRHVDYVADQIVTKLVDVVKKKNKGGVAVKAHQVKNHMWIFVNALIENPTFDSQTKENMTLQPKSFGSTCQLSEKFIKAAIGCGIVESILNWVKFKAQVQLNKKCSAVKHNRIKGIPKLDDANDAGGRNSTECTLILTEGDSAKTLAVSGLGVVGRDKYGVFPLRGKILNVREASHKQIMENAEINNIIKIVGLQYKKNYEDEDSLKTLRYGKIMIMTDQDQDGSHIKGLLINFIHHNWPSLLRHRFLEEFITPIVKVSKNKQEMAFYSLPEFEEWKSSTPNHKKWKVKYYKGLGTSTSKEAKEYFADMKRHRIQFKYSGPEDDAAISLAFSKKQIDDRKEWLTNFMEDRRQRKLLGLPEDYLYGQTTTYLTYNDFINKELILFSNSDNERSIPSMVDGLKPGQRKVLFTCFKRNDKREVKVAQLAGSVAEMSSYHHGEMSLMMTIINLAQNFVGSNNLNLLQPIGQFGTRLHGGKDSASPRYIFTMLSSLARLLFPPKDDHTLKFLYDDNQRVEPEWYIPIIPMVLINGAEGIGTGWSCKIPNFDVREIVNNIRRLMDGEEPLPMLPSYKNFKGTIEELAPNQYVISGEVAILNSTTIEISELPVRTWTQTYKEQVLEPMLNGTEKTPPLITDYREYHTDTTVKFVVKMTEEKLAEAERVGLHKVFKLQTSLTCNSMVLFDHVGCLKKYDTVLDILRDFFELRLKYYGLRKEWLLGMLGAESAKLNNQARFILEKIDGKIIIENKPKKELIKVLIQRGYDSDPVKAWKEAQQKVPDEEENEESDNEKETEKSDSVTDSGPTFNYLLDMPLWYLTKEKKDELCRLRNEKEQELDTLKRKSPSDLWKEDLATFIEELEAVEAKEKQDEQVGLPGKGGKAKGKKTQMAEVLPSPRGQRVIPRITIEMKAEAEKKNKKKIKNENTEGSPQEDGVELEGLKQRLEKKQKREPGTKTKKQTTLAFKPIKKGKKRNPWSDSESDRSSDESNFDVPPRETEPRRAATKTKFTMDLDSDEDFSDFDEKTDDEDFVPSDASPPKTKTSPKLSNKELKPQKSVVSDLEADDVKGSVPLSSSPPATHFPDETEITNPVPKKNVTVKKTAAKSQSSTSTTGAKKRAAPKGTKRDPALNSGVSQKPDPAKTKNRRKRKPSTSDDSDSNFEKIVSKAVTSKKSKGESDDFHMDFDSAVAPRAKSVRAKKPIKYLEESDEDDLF

Target: T1, topoisomerase II (Homo sapiens, UniProt P11388)
T1 construct: purchased TopoGEN, Inc., Port Orange, Fla
Test: Topoisomerase II drug screening kit (relaxation of plasmid DNA)
Type: biochemical
Parameters: key: — none; + low; ++ moderate; +++ strong
Conditions: 100 μM drug compound; topoisomerase II (4U), 500 ng plasmid DNA
From the text: In order to determine the effect of the makaluvamine derivatives of the present disclosure, the synthesized makaluvamine derivatives were screened for their ability to inhibit topoisomerase II activity in vitro. Topoisomerase II functions by generating a double-stranded DNA break followed by resealing of the break. Topoisomerase II inhibitors interfere with the breakage-rejoining reaction thereby trapping the enzyme in a cleavage complex. In order to determine if the disclosed makaluvamine derivatives inhibited topoisomerase II activity, nine of the derivatives were tested for topoisomerase II inhibitory activity using a topoisomerase-II drug screening kit (TopoGEN, Inc., Port Orange, Fla.) according to the manufacturer's instructions. The screening kit uses a supercoiled plasmid DNA substrate (pRYG) which contains one topoisomerase II cleavage/recognition site. […] Relaxed DNA was separated using non-ethidium bromide (EtBr) agarose gels, then stained with EtBr and quantified using Kodak Gel Logic Imaging System and Molecular Imaging software (Eastman Kodak Co., Rochester, N.Y.). Inhibition of relaxation of plasmid DNA or catalytic activity was reported as; − none, + low, ++ moderate, or +++ strong.

Topoisomerase II Inhibition: +
SMILES: COc1cc([C@@H]2c3cc4c(cc3[C@@H](O[C@@H]3O[C@@H]5CO[C@@H](C)O[C@H]5[C@H](O)[C@H]3O)[C@H]3COC(=O)[C@H]23)OCO4)cc(OC)c1O [Etoposide, reference compound]
